Holding throughout (format): cell-based, human
The subject of assay [1] is NCI-H292 cells. The assay is described as follows: Northern analysis for MUC5 gene expression in NCI-H292 cells. The conditions noted are these: EGF or TGFα 25 ng/ml, TNFα 20 ng/ml; 12 h, 24 h. As for the experimental part:
(§1) Cell culture. A human pulmonary mucoepidermoid carcinoma cell line, NCI-H292 cells, were grown in RPMI11640 medium containing 10% fetal bovine serum, penicillin (100 U/ml), streptomycin (100 μg/ml) at 37° C. in a humidified 5% CO2 water-jacketed incubator. When confluent, cells were incubated with EGF (recombinant human EGF, 25 ng/ml, Genzyme, Cambridge, Mass.), TGFα (recombinant human TGFα, 25 ng/ml, Qenzyme), TNFα (recombinant human TNFα, 20 ng/ml, Genzyme), EGF (25 ng/ml) plus TNFα (20 ng/ml) or TGFα (25 ng/ml) plus TNFα (20 ng/ml) for 12 h, 24 h or 48 h. In inhibition studies with an EGF-R tyrosine kinase inhibitor, BIBX1522 (10 μg/ml, generously provided by Boehringer Ingelheim Inc., Ingelheim, Germany), cells were pretreated with BIBX1522 30 min before adding growth factors. After incubation, cells grown in a T-75 flask were used for total RNA extraction or protein extraction, and 8-chamber slides were used for Alcian blue/PAS-staining to visualize mucins.
(§2) Probes. EGF-R mRNA expression was determined using the linearized pTRI-EGF-R-human probe template (Ambion, Austin, Tex.). This probe contains a 360 bp cDNA fragment of the human EGF-R gene, which spans exons 12-14. MUCG gene expression was determined using human MUC5AC probe, which contains a 298 bp cDNA fragment of human MUC5AC gene (generously provided by Dr. Carol Basbaum).
(§3) Northern blotting. […]

For assay [2], the system named is NCI-H292 cells. The assay is described as follows: Northern analysis of EGF-R in NCI-H292 cells. The conditions noted are these: TNFα 20 ng/ml; present at 12 h, increased at 24 h. Here is the method:
as §1, §2, §3

The test system of assay [3] is NCI-H292 cells. The assay is described as follows: Alcian blue/PAS staining of NCI-H292 cells for mucin glycoproteins. The following applies: TNFα 20 ng/ml; EGF, TGFα each 25 ng/ml. Here is the method:
as §1

The test system of assay [4] is NCI-H292 cells. The assay is described as follows: In situ hybridization of EGFR mRNA in NCI-H292 cells. The conditions noted are these: within 6 hours, increased at 12 hours. As for the experimental part: NCI-H292 cells, a human pulmonary mucoepidermoid carcinoma cell line, were grown in RPMI 1640 medium containing 10% fetal bovine serum, penicillin (100 U/ml), streptomycin (100 μg/ml) and Hepes (25 mM) at 37° C. in a humidified 5% CO2 water-jacketed incubator. Either 6-well culture plates or 8-chamber slides were used to culture the cells. When confluent, cells were incubated for 1 hour with cigarette smoke solution. The cells were then washed and incubated with fresh medium alone. Experiments were terminated at preselected times (for mRNA, 6 hours and 12 hours; for protein, 24 hours). As controls, cells were incubated with medium alone for same time periods. In inhibition studies with EGFR tyrosine kinase inhibitors, NCI-H292 cells were pretreated with BIBX1522 (10 μg/ml, generously provided by Boehringer Ingelheim Pharma KG, Ingelheim, Germany) or tyrphostin AG1478 (10 μM, Calbiochem) 30 min before delivering the cigarette smoke solution. The effects of a selective inhibitor of platelet-derived growth factor receptor tyrosine kinase (tyrphostin AG1295, 100 μM, Calbiochem), and a negative control for tyrphostins (tyrphostin A1, 100 μM, Calbiochem) were also examined. The role of reactive oxygen species was examined using a scavenger of oxygen free radicals DMSO (1%, Sigma), or superoxide dismutase (SOD, 300 U/ml, Sigma). […]

The values below come from patent publication US7531500B2, “Preventing airway mucus production by administration of EGF-R antagonists” (The Regents of the University of California, priority 1998, dated 2009).

On to “TNFα: recombinant human tumor necrosis factor alpha (Genzyme)”, for which the “MUC5 gene expression on incubation with mediator” value in the assay with NCI-H292 cells [1] is on record as “did not affect MUC5 gene expression”. In addition, the EGF-R gene expression result in the assay with NCI-H292 cells [2] was “up-regulated EGF-R gene expression”. In the assay with NCI-H292 cells [3], the “PAS-positive staining on incubation with mediator” value is listed as “did not affect staining”. For the same substance, the “EGFR mRNA expression” value in the assay with NCI-H292 cells [4] was “increased”.
